Results published in patent publication US20220387405A1, “METHODS OF TREATMENT WITH N-((R)-1-(3-CHLOROPYRIDIN-2-YL)-2,2,2-TRIFLUOROETHYL)-2-((S)-2,6-DIOXOPIPERIDIN-3-YL)-1-OXOISOINDOLINE-5-CARBOXAMIDE” (CELGENE CORPORATION, priority 2021, published 2022).

Test system: human peripheral blood (PB) lymphocytes
Test: In vitro mammalian cell micronucleus test
Details: 4 hours with and without S9, 24 hours without S9; compared with negative controls
Description: Compound 1 was tested in the in vitro mammalian cell micronucleus test in human peripheral blood (PB) lymphocytes in the presence and absence of a metabolic activation system, Aroclor-induced rat liver fraction (S9), for 4 hours, and in the absence of S9 for 24 hours. The highest concentration tested was 481 μg/mL. Dimethyl sulfoxide (DMSO) was used as the solvent. […] In addition, 2 lower concentrations with appropriate concentration and cytotoxicity spacing were chosen for micronucleus scoring in each regime.

mitomycin C
proportion of micronucleated binucleate cells (MBC): statistically significant increases
